Measurements as given in ChEMBL document CHEMBL1125942, “A potent, simple derivative of an analog of the CC-1065 alkylation subunit” (Bioorg Med Chem Lett, 1991).
The source made the active and inactive calls. The calls are words filed in the database; no cut-off is given here.

Assays:
[1] = Relative intensity of alkylation at the high affinity alkylation site [5-d(AATAB)-3) within w794 DNA (4C. 24 h) determined using a scanning densitometer NA - No alkylation observed at 10e-1 M concentration.
[2] = Relative intensity of alkylation at the high affinity alkylation site [5-d(AATAB)-3) within w794 DNA ( 37 C. 24 h) determined using a scanning densitometer NA - No alkylation observed at 10e-1 M concentration.
[3] = Relative intensity of alkylation at the high affinity alkylation site [5-d(AATAB)-3) within w794 DNA (4C. 24 h) determined using a scanning densitometer; 0.01-0.001
[4] = Relative intensity of alkylation at the high affinity alkylation site [5-d(AATAB)-3) within w794 DNA (37C. 24 h) determined using a scanning densitometer; 0.1-0.01
[5] = Relative intensity of alkylation at the high affinity alkylation site [5-d(AATAB)-3) within w794 DNA (4C or 37 C. 24 h) determined using a scanning densitometer; NA - No alkylation observed at 10e-1 M concentration.
[6] = Relative intensity of alkylation at the high affinity alkylation site [5-d(AATAB)-3) within w794 DNA (4C or 37 C. 24 h) determined using a scanning densitometer.
[7] = Relative intensity of alkylation at the high affinity alkylation site [5-d(AATAB)-3) within w794 DNA (4C, 24 h) determined using a scanning densitometer.
[8] = Relative intensity of alkylation at the high affinity alkylation site [5-d(AATAB)-3) within w794 DNA (37C, 24 h) determined using a scanning densitometer.
[9] = Relative intensity of alkylation at the high affinity alkylation site [5-d(AATAB)-3) within w794 DNA ( 37 C. 24 h) determined using a scanning densitometer.
[10] = Relative intensity of alkylation at the high affinity alkylation site [5-d(AATAB)-3) within w794 DNA (4C. 24 h) determined using a scanning densitometer.

With `OC1=CC2=NCC3CC23c2ccccc21` (racemic) the Relative intensity [1] was “inactive” and the Relative intensity [2] was “inactive”.

`CC(C)(C)OC(=O)NNC(=O)N1CC(CCl)c2c1cc(O)c1ccccc21` (racemic) gave a Relative intensity [3] of 0.01 and a Relative intensity [4] of 0.1.

With `CC(C)(C)OC(=O)N1CC2CC23C1=CC(=O)c1ccccc13` (racemic) the Relative intensity [5] was “inactive” and the Relative intensity [6] was 0.001.

Compound `Cl.NNC(=O)N1CC(CCl)c2c1cc(O)c1ccccc21` (racemic) has a Relative intensity [7] of 0.1 and a Relative intensity [8] of 1.

Compound `COc1c(O)c2c(c3cc(C(=O)N4CCc5c4c(O)c(OC)c4[nH]c(C(=O)N6C[C@H]7C[C@@]78C6=CC(=O)c6[nH]cc(C)c68)cc54)[nH]c13)CCN2C(N)=O` [(+)-CC-1065] has a Relative intensity [9] of 100 and a Relative intensity [10] of 100.
